# Tested on: HepG2 cells
# Assay: Annexin V-FITC/PI apoptosis analysis
# Type: cell-based
# Conditions: 0.5 µM, 48 h
structure (smiles),measurement,value
"O=C(CCCCCCC(=O)Nc1ccccc1)NO [SAHA, Vorinostat, reference compound]",apoptosis of HepG2 cells,21%

# Source: PMC12238359 (Scientific Reports, 2025)
